Assay results taken from ChEMBL document CHEMBL1135896, “Synthesis and notable antimalarial activity of acyclic peroxides, L-(alkyldioxy)-L-(methyldioxy)cyclododecanes” (J Med Chem, 2002).
pEC50: −log10 of the molar value.

Tested on: FM3A
Assay: Mammalian cell cytotoxicity assessed against mouse mammary tumor FM3A cells
Type: functional, cell-based
Summary of the method: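 Mouse mammary tumor FM3A cells in culture used as a mammalian cytotoxicity control; EC50 determined by a previously reported protocol. Selectivity is the mean EC50 for FM3A cells divided by the mean EC50 for P. falciparum.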

Row | Compound | pEC50
1 | COOC1(OOC)CCC(C(C)(C)C)CC1 | 4.60
2 | CCCCC(CCCC)(OOC)OOC | < 4.35
